Assays:
Swiss-Webster mice = test: Reversal of morphine analgesia, 49° C. TW test; details: 25 nmol OFQ i.c.v.
C57BL/6J mice = test: Precipitation of withdrawal in morphine dependent mice (withdrawal jumping); details: OFQ doses >5 nmole
mice = test: Nociception in mice (hot plate, toe- and tail-pinch) after icv or intrathecal administration

Compound: CC(C)C[C@H](NC(=O)[C@H](CCCCN)NC(=O)[C@H](CCCN=C(N)N)NC(=O)[C@H](C)NC(=O)[C@H](CO)NC(=O)[C@H](CCCCN)NC(=O)[C@H](CCCN=C(N)N)NC(=O)[C@H](C)NC(=O)CNC(=O)[C@@H](NC(=O)[C@H](Cc1ccccc1)NC(=O)CNC(=O)CNC(=O)[C@@H](N)Cc1ccccc1)[C@@H](C)O)C(=O)N[C@@H](C)C(=O)N[C@@H](CC(N)=O)C(=O)N[C@@H](CCC(N)=O)C(=O)O [OFQ]
- marked atonia and flaccid paralysis (Swiss-Webster mice): up to 50 % of mice
- atonia in morphine-dependent mice (C57BL/6J mice): produced atonia in some morphine-dependent mice
- side effects at the highest intrathecal dose (mice): hind limb paralysis and decrease in locomotor activity

Reference: patent US20010010919A1 (priority 1998, published 2001)
